# From PubChem BioAssay
# TDP1 cell CPT = DT40-hTDP1 cell growth loss with CPT; chicken DT40 Tdp1-/-;hTDP1 cells + 20 nM CPT, ATP luminescence, 48 h; Potency, µM (titrated, usually from 46.2 µM), for the others: at the top dose activity change, negative = growth inhibition, actives largely listed as inhibitors; 420,000 tested, 12% active; AID 686979; note: potency is the fitted concentration of half-maximal effect; % is set by controls: 0 for no effect and ±100 for the full control effect; nearly all actives have a fitted effect of over 55% in size
#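 Cell growth measured by CellTiter-Glo luminescence after a minimum 48 h, 37 C compound exposure with 20 nM CPT in Tdp1-knockout DT40 cells stably expressing hTDP1, seeded 400/well; qHTS titration format.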
# miR-21 reporter = raises the signal of a miR-21 reporter; Potency, µM (doses to about 38.3 µM), inactives show top-dose reporter change, positive = more light; HeLa miR-21 FLuc reporter, luciferase, 48 h; AID 2288; 340,000 tested, under 10 active; active = well fitted rising curve with a large enough effect; inconclusive = small, poorly fitted or top-dose-only effect; inactive = no such curve, though single readings can be large or run the other way;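 further: % of control where 0% means no effect; miR-21 action dims this reporter so a rising signal means less miR-21 action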
#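 Compounds were titrated across several concentrations (up to approximately 40 uM) and incubated 48 hours with HeLa miR-21-FLuc reporter cells (miR-21 target sequence downstream of FLuc, endogenous miR-21). Readout was firefly luciferase luminescence after lytic detection reagent.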
# DT40 TDP1 no CPT = qHTS for Inhibitors of human tyrosyl-DNA phosphodiesterase 1 (TDP1): qHTS in cells in absence of CPT; DT40 Tdp1-/- hTDP1 cells, no CPT, ATP luminescence, 48 h; Potency, µM (titrated, usually from 46.2 µM), without a hit: at the top dose activity change, negative = growth inhibition, hits mostly inhibitors; 420,000 tested, 15% active; note: potency is the fitted concentration of half-maximal effect; % is set by controls: 0 for no effect and ±100 for the full control effect; nearly all actives have a fitted effect of over 55% in size
#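 Readout: luminescence from CellTiter-Glo after 30 min in the dark at RT. Cells: DT40 Tdp1-/- with stable hTDP1, 400/well. Exposure: compounds alone, ≥48 hr, 37 °C.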
# TDP1 inh = blocks human tyrosyl-DNA phosphodiesterase 1. Q9NUW8. recombinant TDP1, AlphaScreen DNA substrate cleavage. Potency, µM (highest dose often 130 µM), for the others: at the highest dose activity change, negative = inhibition, usual class: inhibitors. 350,000 tested, 0.28% active; note: potency is the fitted concentration of half-maximal effect; % is set by controls: 0 for no effect and ±100 for the full control effect; nearly all actives have a fitted effect of over 40% in size
#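 Here, a 5' biotin and 3' phosphotyrosine-FITC DNA oligonucleotide reports Tdp1 activity: intact substrate bridges AlphaScreen beads, while cleavage leaves a 3' phosphate and drops signal. All incubations at room temperature.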
# uPA generation = cell surface uPA generation inhibition. cell surface uPA generation assay, qHTS. Potency, µM (top dose mostly 38.3 µM), inactives show at the highest dose activity change, negative = inhibition, usual class: inhibitors. 330,000 tested, 0.31% active. AID 540303; active = well fitted inhibition curve with a large enough effect; inconclusive = small, poorly fitted or top-dose-only effect; inactive = no such curve, though single readings can be large or run the other way; tested in mouse RAW 264.7 cells; note: potency is the fitted concentration of half-maximal effect; % is set by controls: 0 for no effect and ±100 for the full control effect; nearly all actives have a fitted effect of over 55% in size
# The depositor's hits bear a star; ? = inconclusive; nt = no result given. The list is not random: actives were taken first. Their share in the collection is about 16%. Unless noted, calls come from the whole dose curve; as a rule, active = well fitted curve in the direction sought with a large enough effect; inconclusive = small, poorly fitted or top-dose-only effect, or another doubt; inactive = no such curve, though single readings can be large; an effect the other way counts as inactive or inconclusive.
[1] COc1ccc(C(C)=O)cc1COc1ccc(Cl)cc1Cl
[2] CC1(Cc2cc(Cl)ccc2C(F)(F)F)C(=O)Nc2c(Cl)cccc21 (stereo not drawn)
[3] CC1(Cc2ccc(S(C)(=O)=O)cc2)C(=O)Nc2ccc(Cl)cc21 (stereo not drawn)
[4] CC1(Cc2ccc(F)c(Cl)c2)C(=O)Nc2c(Cl)cccc21 (stereo not drawn)
[5] CN(C)c1cccc(C(=O)Nc2cccc(S(=O)(=O)NC3=NCCC3)c2)c1

compound no.	1	2	3	4	5
TDP1 cell CPT	-3%	?	6%	?	14%
miR-21 reporter	-9%	nt	nt	nt	-51%
DT40 TDP1 no CPT	?	13µM*	-24%	16µM*	-1%
TDP1 inh	4%	nt	nt	nt	5%
uPA generation	-2%	nt	nt	nt	-8%

[6] CC(C)(C)c1ccc(C(=O)NCc2nnc(SCC(=O)NC3CCCCC3)o2)cc1
[7] COc1cc(C(=O)NCc2nnc(SCC(=O)Nc3nc4ccccc4s3)o2)cc(OC)c1OC
[8] COc1ccc(C(=O)NCc2nnc(SCC(=O)Nc3nc4ccccc4s3)o2)cc1
[9] CCCCSc1n[nH]c(=S)c2nc[nH]c12
[10] CC(=O)CC(=O)NC1C2CC3CC(C2)CC1C3 (stereo not drawn)

compound no.	6	7	8	9	10
TDP1 cell CPT	8.2µM*	9.2µM*	29µM*	?	-3%
miR-21 reporter	3%	-34%	-29%	nt	-11%
DT40 TDP1 no CPT	21µM*	10µM*	?	?	-1%
TDP1 inh	4%	3%	1%	nt	6%
uPA generation	-13%	4%	1%	4%	0%

[11] COc1ccc(OC)c(S(=O)(=O)N2c3cc(F)ccc3CCC2C)c1 (stereo not drawn)
[12] COc1ccc(OC)c(S(=O)(=O)N2C(C)CCCC2C)c1 (stereo not drawn)
[13] COc1ccc(CN2C(=O)CSCC2(C)C(=O)NCc2ccccc2)cc1OC (stereo not drawn)
[14] CC1(C(=O)NCc2ccccc2)CSCC(=O)N1Cc1cccc(C(F)(F)F)c1 (stereo not drawn)
[15] COc1ccc(CCNC(=O)C(=O)NCC2OCCN2S(=O)(=O)c2ccccc2)cc1OC (stereo not drawn)

compound no.	11	12	13	14	15
TDP1 cell CPT	7.3µM*	?	4%	18µM*	?
miR-21 reporter	0%	-14%	nt	nt	4%
DT40 TDP1 no CPT	?	?	?	?	-19%
TDP1 inh	-1%	-1%	nt	nt	nt
uPA generation	-1%	1%	nt	nt	8%

[16] Cc1ccc(S(=O)(=O)N2CCC[C@H]2C(=O)Nc2ccccc2Cl)cc1
[17] O=C(NCCc1ccccc1)C(=O)NCCC1CCCCN1S(=O)(=O)c1ccccc1 (stereo not drawn)
[18] COc1ccc(CCNC(=O)C(=O)NCC2CCCN2S(=O)(=O)c2ccccc2)cc1OC (stereo not drawn)
[19] O=C(NCCc1ccccc1)C(=O)NCC1CCCN1S(=O)(=O)c1ccccc1 (stereo not drawn)
[20] O=C(COC(=O)[C@@H]1CCCN1S(=O)(=O)c1ccc(Cl)cc1)NCC(F)(F)F

compound no.	16	17	18	19	20
TDP1 cell CPT	4%	?	?	13µM*	-2%
miR-21 reporter	nt	nt	nt	nt	-5%
DT40 TDP1 no CPT	16µM*	?	13µM*	10µM*	-12%
TDP1 inh	-3%	-2%	nt	nt	6%
uPA generation	-3%	1%	-5%	?	4%

# The results go on.
# Letters: A = TDP1 cell CPT; B = miR-21 reporter; C = DT40 TDP1 no CPT; D = TDP1 inh; E = uPA generation
21: CCOC(=O)c1c(C)[nH]c(C)c1C(=O)COC(=O)[C@@H]1CCCN1S(=O)(=O)c1ccc(Cl)cc1
  A: 15µM* | B: 1% | C: 13µM* | D: -1% | E: nt
22: COc1cccc(-c2ccc3c(N)c(C(=O)NC4CC4)sc3n2)c1
  A: ? | B: -27% | C: ? | D: 0% | E: -9%
23: CC(=O)Nc1ccc(S(=O)(=O)N2CCN(C(=O)c3ccco3)CC2)cc1
  A: -3% | B: 0% | C: -1% | D: nt | E: -22%
24: O=C(NCCc1ccc(Cl)cc1)C1CCCN1C(=O)Nc1ccc(F)cc1 (stereo not drawn)
  A: -16% | B: 3% | C: 20% | D: 3% | E: ?
25: CC(C)(C)c1ccc(S(=O)(=O)N2CCCCC2C(=O)NCc2ccccn2)cc1 (stereo not drawn)
  A: 23µM* | B: 5% | C: ? | D: 2% | E: -5%
26: Cc1ccc(S(=O)(=O)N2CCCC2C(=O)NCCc2ccccc2)cc1 (stereo not drawn)
  A: -14% | B: -2% | C: 15µM* | D: 5% | E: -14%
27: CCOc1ccccc1NC(=O)C1CCCCN1S(=O)(=O)c1ccc(F)cc1 (stereo not drawn)
  A: -28% | B: 0% | C: 21µM* | D: -3% | E: -1%
28: O=C(NCCc1ccccc1)C1CCCN1C(=O)Nc1ccc(F)cc1 (stereo not drawn)
  A: ? | B: -1% | C: 15µM* | D: 2% | E: -1%
29: Cc1ccc(NC(=O)CSc2nc3ccccc3c(=O)n2Cc2cccs2)cc1
  A: ? | B: -6% | C: -17% | D: 0% | E: 4%
30: OCC1(CCOc2ccccc2)CCN(Cc2cn[nH]c2-c2ccc(F)cc2)CC1
  A: 3% | B: 1% | C: ? | D: 0% | E: 5%
31: CC(C)(C)c1nnc2sc(SCC(=O)N3CCc4ccccc43)nn2c1=O
  A: ? | B: 5% | C: ? | D: -1% | E: 0%
32: Cc1ccc(S(=O)(=O)N2CCCC2C(=O)OCc2ccco2)cc1 (stereo not drawn)
  A: 15µM* | B: -2% | C: 21µM* | D: -2% | E: -17%
33: CC(C)(C#N)NC(=O)C1CCCN1S(=O)(=O)c1ccc2ccccc2c1 (stereo not drawn)
  A: 23µM* | B: 19% | C: ? | D: -14% | E: -8%
34: Cc1ccc2nc(CSc3nnc(NC(=O)C(C)C)s3)cc(=O)n2c1
  A: ? | B: -4% | C: ? | D: 0% | E: nt
35: COC(=O)c1ccc(NC(=O)CC2C(=O)N(c3ccc(Cl)cc3)C(=O)N2Cc2cccs2)cc1 (stereo not drawn)
  A: 23µM* | B: 26% | C: ? | D: 11% | E: nt
36: COC(=O)c1ccc(NC(=O)CC2C(=O)N(c3ccccc3)C(=O)N2Cc2cccs2)cc1 (stereo not drawn)
  A: 16µM* | B: -3% | C: 18µM* | D: 4% | E: nt
37: CCOc1ccc(NC(=O)CC2C(=O)N(c3ccc(Cl)cc3)C(=O)N2Cc2cccs2)cc1 (stereo not drawn)
  A: ? | B: 11% | C: 13µM* | D: 3% | E: nt
38: CCOc1ccc(NC(=O)CN(C)S(=O)(=O)c2cnc[nH]2)cc1
  A: 1% | B: -3% | C: ? | D: 2% | E: 6%
39: CC(=O)c1ccccc1NC(=O)CCN1C(=O)C2CCCCC2C1=O (stereo not drawn)
  A: 4% | B: nt | C: -1% | D: 1% | E: 0%
40: CCOc1ccc(S(=O)(=O)NCCC(=O)OCC(=O)N2CC(=O)Nc3ccccc32)cc1
  A: 5% | B: -3% | C: 12% | D: 8% | E: 8%
41: CSc1nnc(-c2ccccc2)n1C
  A: -3% | B: -9% | C: -4% | D: -2% | E: 8%
42: CCn1c(SC)nnc1-c1c[nH]c2ccccc12
  A: -18% | B: -18% | C: -26% | D: 3% | E: -7%
43: CCn1c(SC)nnc1-c1sc2cc(Cl)ccc2c1Cl
  A: 16µM* | B: -9% | C: ? | D: 7% | E: -1%
44: CSc1nnc(-c2sc3cc(Cl)ccc3c2Cl)n1C
  A: ? | B: -16% | C: 26µM* | D: 0% | E: 4%

# Looked up by compound from the entries so far, 5 records:
# Letters: A = TDP1 cell CPT; B = miR-21 reporter; C = DT40 TDP1 no CPT; D = TDP1 inh; E = uPA generation
28: O=C(NCCc1ccccc1)C1CCCN1C(=O)Nc1ccc(F)cc1 (stereo not drawn)
  A: ? | B: -1% | C: 15µM* | D: 2% | E: -1%
13: COc1ccc(CN2C(=O)CSCC2(C)C(=O)NCc2ccccc2)cc1OC (stereo not drawn)
  A: 4% | B: nt | C: ? | D: nt | E: nt
3: CC1(Cc2ccc(S(C)(=O)=O)cc2)C(=O)Nc2ccc(Cl)cc21 (stereo not drawn)
  A: 6% | B: nt | C: -24% | D: nt | E: nt
6: CC(C)(C)c1ccc(C(=O)NCc2nnc(SCC(=O)NC3CCCCC3)o2)cc1
  A: 8.2µM* | B: 3% | C: 21µM* | D: 4% | E: -13%
39: CC(=O)c1ccccc1NC(=O)CCN1C(=O)C2CCCCC2C1=O (stereo not drawn)
  A: 4% | B: nt | C: -1% | D: 1% | E: 0%
